Values after ≈ are worked out from the molar mass of the structure shown.
Assays:
Experiment in all cases: ≥ marks a high value that may be exact or a test limit, other limits are often not marked, values filed in µg/mL are converted to µM
[1] = tested on: Staphylococcus aureus ATCC 6538
[2] = tested on: Pseudomonas aeruginosa ATCC 9027
[3] = tested on: Xanthomonas campestris pv. Vesicatoria Xcv 206
[4] = tested on: Pseudomonas syringae pv. syringae EPS 94
[5] = tested on: Xanthomonas campestris pv. Vesicatoria 2133-2
[6] = tested on: Erwinia amylovora PMV 6076
[7] = tested on: Pseudomonas syringae pv. tomato DC3000

MIC [3] | MIC [4] | MIC [5] | MIC [6] | MIC [7] | Structure (SMILES) | MIC [1] | MIC [2]
– | – | – | – | – | CC(C)C[C@H](NC(=O)[C@H](C)NC(=O)[C@H](CC(C)C)NC(=O)[C@H](C)NC(=O)[C@H](CC(C)C)NC(=O)[C@H](CCCCN)NC(=O)[C@H](C)NC(=O)[C@H](CC(C)C)NC(=O)[C@H](CCCCN)NC(=O)[C@H](CCCCN)NC(=O)[C@H](C)NC(=O)[C@H](CC(C)C)NC(=O)[C@H](CCCCN)NC(=O)[C@H](CCCCN)NC(=O)[C@H](CC(C)C)NC(=O)[C@H](CCCCN)NC(=O)[C@H](CCCCN)NC(=O)[C@H](C)NC(=O)[C@H](CC(C)C)NC(=O)[C@H](CCCCN)NC(=O)[C@H](CCCCN)NC(=O)[C@H](C)NC(=O)[C@@H](N)Cc1ccccc1)C(=O)O [FAKKLAKKLKKLAKKLAKLALAL] | 3.94 µM (≈ 10 µg/mL) | > 78.8 µM
1 µM (≈ 3.24 µg/mL) | 3.54 µM (≈ 11.5 µg/mL) | 3.54 µM (≈ 11.5 µg/mL) | 3.54 µM (≈ 11.5 µg/mL) | 3.16 µM (≈ 10.3 µg/mL) | CC[C@H](C)[C@H](NC(=O)CNC(=O)[C@H](C)NC(=O)[C@@H]1CCCN1C(=O)CNC(=O)[C@H](C)NC(=O)[C@H](CC(C)C)NC(=O)[C@H](Cc1ccc(O)cc1)NC(=O)[C@H](CCCCN)NC(=O)[C@H](CC(C)C)NC(=O)[C@@H](NC(=O)[C@H](CCCCN)NC(=O)[C@H](CCCCN)NC(=O)[C@H](Cc1ccccc1)NC(=O)[C@H](CC(C)C)NC(=O)[C@H](CCCCN)NC(=O)[C@@H](N)CCCCN)[C@@H](C)CC)C(=O)NCC(=O)N[C@@H](CCCCN)C(=O)N[C@@H](Cc1ccccc1)C(=O)N[C@@H](CC(C)C)C(=O)N[C@@H](Cc1cnc[nH]1)C(=O)N[C@@H](CO)C(=O)N[C@@H](C)C(=O)N[C@@H](CCCCN)C(=O)N[C@@H](CCCCN)C(=O)N[C@@H](CC(=O)O)C(=O)N[C@@H](CCC(=O)O)C(=O)N[C@@H](CC(C)C)C(=O)O [KKLFKKILKYLAGPAGIGKFLHSAKKDEL] | – | –

Reference: DBAASP
